Target: T1, human β2-adrenergic receptor (Homo sapiens, UniProt P07550)
T1 construct: extending from the NcoI site to the DraI site which contained the coding region for the human β2-adrenergic receptor; β-galactosidase (lacZ product of λgt11, fused at the EcoRI site near the 3' end of lacZ) (N); linker Asp-Asp-Pro (acid-cleavable) (N); expressed in transfected cells; host or cells: E. coli Y1089 lysogenized with recombinant λgt11
Assay type: binding

Substance: (−) norepinephrine
- Ki: 9.1 ± 1.1 µM

Source: patent publication US6645755B1, “VECTOR MODIFIED BY SEQUENCE CODING FOR A SEQUENCE OF AMINO ACIDS CONTAINED IN A MAMMALIAN PROTEIN HAVING THE BIOLOGICAL ACTIVITY OF A MEMBRANE RECEPTOR, EXPRESSION OF THIS SEQUENCE IN TRANSFORMED UNICELLULAR CULTURES BY MEANS OF THIS VECTOR, PROCEDURE FOR STUDYING LIGANDS RECOGNIZING THESE RECEPTORS” (Centre National de la Recherche Scientifique, priority 1988, dated 2003)
